From PubChem BioAssay AID488839 (Broad Institute, 2010)
Only a part is listed here, and it is no random draw. The source made the active and inactive calls.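 Rule for the calls: active = highest replicate inhibition of at least 50% and at least 75% of replicates reaching 50%; inconclusive = only one of the two criteria met; inactive = both criteria failed.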

The chains behind the UniProt entries cited, without tags or fusion partners.
UniProt Q00535, whole entry, looked up: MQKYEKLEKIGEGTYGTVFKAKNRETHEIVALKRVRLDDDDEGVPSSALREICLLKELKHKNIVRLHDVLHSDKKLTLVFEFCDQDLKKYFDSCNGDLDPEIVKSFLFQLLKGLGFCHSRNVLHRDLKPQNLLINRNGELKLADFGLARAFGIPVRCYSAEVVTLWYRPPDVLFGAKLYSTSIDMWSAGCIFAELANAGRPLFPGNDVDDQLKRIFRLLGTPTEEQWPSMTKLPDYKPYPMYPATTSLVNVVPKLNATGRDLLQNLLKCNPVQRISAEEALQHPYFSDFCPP
UniProt Q15078, whole entry, looked up: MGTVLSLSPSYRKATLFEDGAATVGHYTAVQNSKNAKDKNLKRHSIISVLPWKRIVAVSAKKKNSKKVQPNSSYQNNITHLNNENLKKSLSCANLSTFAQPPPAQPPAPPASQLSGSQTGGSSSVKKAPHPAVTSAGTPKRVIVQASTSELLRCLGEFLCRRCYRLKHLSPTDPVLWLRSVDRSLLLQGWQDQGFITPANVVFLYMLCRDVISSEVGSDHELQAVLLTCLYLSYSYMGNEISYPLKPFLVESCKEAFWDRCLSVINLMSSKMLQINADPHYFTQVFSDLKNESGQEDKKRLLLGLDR

Biological target: Cyclin-dependent kinase 5 (Homo sapiens) + Cyclin-dependent kinase 5 activator 1 (Homo sapiens) (UniProt Q00535+Q15078)
Test: inhibitors of human CDK5/p35 kinase, primary screen, biochemical, single concentration (AID 488839);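 note: plate controls were DMSO neutral control for no effect and GW8510 at 10 µM for full effect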
Details: Recombinant CDK5/p35, ADP-Glo luminescence, 60 min; at 10 µM; active compounds read high

| SMILES | inhibition |
| --- | --- |
| CCC(=O)N(c1ccccc1)C1(COC)CCN(CCc2cccs2)CC1 | inactive: -2.02% |
| CCC(=O)N(c1ccccc1)C1(COC)CCN(CCn2nnn(CC)c2=O)CC1 | inactive: 1.08% |
